From PubChem BioAssay AID488 (PCMD, 2006) come the findings set out here.

SMILES strings stand for the structures. The list shows a part of the results, in another mix than the full data. Active and inactive are the calls of the source. No stated cut-off is given here; in the data, active means inhibition above about 22% (passing the limit was not always enough); inconclusive means no clear call, values can overlap the other calls.

For orientation: inhibition means how much of the control response was suppressed.

The test has as its target Cathepsin B (Homo sapiens) (UniProt P07858). The test is described as follows: cathepsin B inhibitors from pooled compounds, primary screen, biochemical, compound mixtures, AMC fluorescence (AID 488).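 Further: 0% = enzyme without compound and 100% = no enzyme blank.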 Particulars: Purified cathepsin B, AMC dipeptide fluorescence, active compounds read high,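 ten-compound pools at 5 µM per compound and 50 µM total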.
For `O=C(OC1CN2CCC1CC2)C1c2ccccc2Oc2ccccc21` (stereo unspecified), the inhibition is inactive: 0.71%. `N#CC1(Nc2ccccc2)CCN(CCc2ccccc2)CC1`: the inhibition is inactive: 3.67%. The same measure for `N/C(=N\O)c1c(N)no[n+]1[O-]`: inactive: 6.25%; for `CCOc1ncccc1C(=O)NCC1(N2CCOCC2)CCCCC1`: inactive: 2.46%. In the case of `CCC(CO)(C(=O)OC1CN2CCC1CC2)c1ccccc1` (stereo unspecified), the inhibition was inactive: 6.11%. The same measure for `Fc1ccccc1NC1CCN(Cc2ccccc2)CC1`: inactive: 6.48%.
